From ChEMBL document CHEMBL5335860, “Imidazole Bioisostere Activators of Endopeptidase Neurolysin with Enhanced Potency and Metabolic Stability” (ACS Med Chem Lett, 2024)

Protein sequences, listed by entry. Tags and fused reporters are not part of them.
UniProt Q9BYT8, whole entry, looked up: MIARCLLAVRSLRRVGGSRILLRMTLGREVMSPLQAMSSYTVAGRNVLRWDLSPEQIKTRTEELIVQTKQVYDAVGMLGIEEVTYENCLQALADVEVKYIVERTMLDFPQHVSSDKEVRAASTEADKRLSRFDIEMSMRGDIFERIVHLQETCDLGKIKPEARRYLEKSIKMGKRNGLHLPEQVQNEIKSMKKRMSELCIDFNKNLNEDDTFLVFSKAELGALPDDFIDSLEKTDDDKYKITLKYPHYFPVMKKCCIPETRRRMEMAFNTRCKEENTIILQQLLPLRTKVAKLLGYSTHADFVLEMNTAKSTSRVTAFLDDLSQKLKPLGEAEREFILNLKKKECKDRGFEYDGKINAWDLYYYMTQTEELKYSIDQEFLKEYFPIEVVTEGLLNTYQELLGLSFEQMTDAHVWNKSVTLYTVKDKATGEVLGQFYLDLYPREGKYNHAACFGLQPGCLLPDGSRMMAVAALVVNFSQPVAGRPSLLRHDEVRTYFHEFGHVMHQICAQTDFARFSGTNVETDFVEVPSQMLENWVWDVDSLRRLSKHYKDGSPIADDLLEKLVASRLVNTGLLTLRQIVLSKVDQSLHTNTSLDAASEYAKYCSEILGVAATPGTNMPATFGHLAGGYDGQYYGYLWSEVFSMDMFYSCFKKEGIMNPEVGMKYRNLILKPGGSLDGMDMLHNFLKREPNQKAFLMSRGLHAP

Biological target: Neurolysin, mitochondrial (Homo sapiens, UniProt Q9BYT8)
Assay: Activation of Nln (unknown origin) using Mca-Pro-Leu-Gly-Pro-D-Lys(DNP)- OH as substrate preincubated for 10 mins followed by substrate addition measured for 20 mins by fluorescence based assay relative to control
Details: time 30.0 min

Work on `N[C@@H](Cc1c[nH]cn1)C(=O)NCCc1ccc(F)cc1` yielded an Emax (filed as activator) of 254%.

For `CC(C)[C@H](NC(=O)[C@@H](N)Cc1c[nH]cn1)C(=O)NCc1cccc2ccccc12`, the Emax was “inactive”.

`N[C@@H](Cc1c[nH]cn1)C(=O)N[C@@H](Cc1ccccc1)C(=O)NCc1cccc2ccccc12` was tested, and the Emax was “inactive”.

For `N[C@@H](Cc1c[nH]cn1)C(=O)NCC(=O)c1ccc2ccccc2c1`, the Emax was “inactive”.

Activity calls are given as the source filed them. The calls are words filed in the database; no cut-off is given here.
